How the values were obtained:
LoVo/Dx = assay: MTT cytotoxicity, multidrug-resistant subline LoVo/DX; format: cell-based, human; settings: LoVo/DX vs LoVo; 60 min
Procedure: The evaluation of the biological activity for the compounds of this invention was performed "in vitro" and "in vivo" following the protocols developed by the U.S. National Cancer Institute.
The evaluation of the "in vitro" cytotoxic activity of the compounds of the invention was performed using the following cell lines: a murine sarcoma (S-180) and its subline expressing multidrug resistance (S-180/A-10), a leukemia (L1210), a human colon adenocarcinoma cell line (LoVo) isolated from a metastatic nodule and its subline expressing multidrug resistance. This latter subline is resistant to a number of antitumor agents, among which are doxorubicin, VP-16 and vincristine. […] The compounds were tested according to the MTT assay (Mosman, T. "Rapid Colorimetric Assay for Cellular Growth and Survival: Application to Proliferation and Cytotoxicity Assay", J. Immunol. Methods, (1983), 65, 55-63; Green, L. M., "Rapid Colorimetric Assay for Cell Viability; Application to the Quantitation of Cytotoxic and Growth Inhibitory Lymphokines", J. Immunol. Methods, (1984), 70, 257-268) in comparison with mitoxantrone and doxorubicin.
The columns headed L1210, S180 LoVo and LoVo/Dx contain the IC50 values against said tumor cell lines, as above described. […]
CYTOTOXICITY ON LOVO AND LOVO/DX WAS DETERMINED BY MTT ASSAY FOLLOWING 1

[1] = tested on: cell histotypes developing resistance against doxorubicin mediated by overexpression of glycoprotein P; settings: MDR; cited from earlier work

## O=C1c2c(O)ccc(O)c2C(=O)c2c(NCCNCCO)ccc(NCCNCCO)c21 [mitoxantrone, 5,8-dihydroxy-1,4-bis[(2-(2-hydroxyethylamino)ethyl)amino]anthracene-9,10-dione]
LoVo/Dx
  resistance index RI (ratio of IC50 for the resistance cell line to IC50 for the sensitive cell line): 22.5
[1]
  cross-resistance to doxorubicin-resistant cell histotypes: cross-resistance
